Measurements reported in PMC7190985 (Frontiers in Microbiology, 2020).

System: HeLa cells
Test: LDH cytotoxicity assay

Structure (SMILES): O=C1CN(C(=O)c2nccs2)C(c2ccccc2)c2cc(Cl)ccc2N1 (stereo not shown)
- CC50: > 400 µM
